Amino acid sequences for entries named in this document (tags omitted). Residues count along the entry.
UniProt A0QU01, 1-140: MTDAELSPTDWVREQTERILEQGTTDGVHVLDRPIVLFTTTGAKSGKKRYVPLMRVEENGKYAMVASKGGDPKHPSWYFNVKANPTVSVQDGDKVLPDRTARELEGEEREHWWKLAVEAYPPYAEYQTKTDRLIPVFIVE
UniProt A0R4Y6, 1-159: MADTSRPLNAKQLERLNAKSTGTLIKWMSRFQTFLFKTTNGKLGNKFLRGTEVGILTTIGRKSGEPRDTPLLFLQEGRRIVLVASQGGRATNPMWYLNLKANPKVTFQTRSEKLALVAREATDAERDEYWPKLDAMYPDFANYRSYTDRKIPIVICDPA

In PMC7032734, “Predicting nitroimidazole antibiotic resistance mutations in Mycobacterium tuberculosis with protein engineering” (2020):

Key:
MSMEG_2027 = MSMEG_2027 (Mycolicibacterium smegmatis, UniProt A0QU01); assay: F420H2 oxidation, absorbance at […] nm; settings: F420H2 25 μM, 200 mM Tris-HCl pH 7.5, 0.1% Triton X-100, room temperature
MSMEG_5998 = MSMEG_5998 (Mycolicibacterium smegmatis, UniProt A0R4Y6); assay: F420H2 oxidation, absorbance at […] nm; settings: F420H2 25 μM, 200 mM Tris-HCl pH 7.5, 0.1% Triton X-100, room temperature

## CC(C)=CCC1=C(C)C(=O)c2ccccc2C1=O
MSMEG_2027
  Km: 80.7 µM
MSMEG_5998
  Km: 97.9 µM
